The values that follow are results of earlier work, collected in publication PMC12767876, “Synthesis and evaluation of enantiomeric quinoline-2-carboxamides: positron emission tomography imaging agents for the translocator protein” (RSC Medicinal Chemistry, 2025).

Chains of the proteins cited; added tags and fusions are not shown. Residues count along the entry.
UniProt P30536, 2-169: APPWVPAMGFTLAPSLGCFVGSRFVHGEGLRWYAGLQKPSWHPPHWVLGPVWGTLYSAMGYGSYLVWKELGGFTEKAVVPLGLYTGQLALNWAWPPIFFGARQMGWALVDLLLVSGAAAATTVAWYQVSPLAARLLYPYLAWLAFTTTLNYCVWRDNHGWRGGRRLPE

In general, Ki refers to a measure of affinity in units of concentration, obtained from inhibition or displacement.

Series [1] relates to TSPO. Also noted: method as in PMID 9234314. Conditions: R-enantiomer of PK11195; cited from earlier work.
Series [2] has as its target TSPO (Homo sapiens, UniProt P30536). Details: method as in PMID 32859708. The note with it: human brain homogenate, (R)-LW223 n = 14, PK11195 n = 18, mean ± SD; read-out: TSPO affinity (Ki); cited from earlier work.

Structures are written as SMILES.

For the molecule `CCC(C)N(C)C(=O)c1cc2ccccc2c(-c2ccccc2Cl)n1` (centres unmarked) [PK11195, reference compound], the “fold higher affinity of the R-enantiomer for TSPO” value in the series on TSPO [1] is given as “approximately two-fold”. Also, the Ki on TSPO [2] was 1.2 ± 1 nM.
